A word on the Ki: it is the equilibrium dissociation constant of an inhibitor or competing ligand from its target.

Sequences of proteins named here, by UniProt entry; tags and fusion partners are left off. Residues count along the entry.
UniProt Q63380, 1-617: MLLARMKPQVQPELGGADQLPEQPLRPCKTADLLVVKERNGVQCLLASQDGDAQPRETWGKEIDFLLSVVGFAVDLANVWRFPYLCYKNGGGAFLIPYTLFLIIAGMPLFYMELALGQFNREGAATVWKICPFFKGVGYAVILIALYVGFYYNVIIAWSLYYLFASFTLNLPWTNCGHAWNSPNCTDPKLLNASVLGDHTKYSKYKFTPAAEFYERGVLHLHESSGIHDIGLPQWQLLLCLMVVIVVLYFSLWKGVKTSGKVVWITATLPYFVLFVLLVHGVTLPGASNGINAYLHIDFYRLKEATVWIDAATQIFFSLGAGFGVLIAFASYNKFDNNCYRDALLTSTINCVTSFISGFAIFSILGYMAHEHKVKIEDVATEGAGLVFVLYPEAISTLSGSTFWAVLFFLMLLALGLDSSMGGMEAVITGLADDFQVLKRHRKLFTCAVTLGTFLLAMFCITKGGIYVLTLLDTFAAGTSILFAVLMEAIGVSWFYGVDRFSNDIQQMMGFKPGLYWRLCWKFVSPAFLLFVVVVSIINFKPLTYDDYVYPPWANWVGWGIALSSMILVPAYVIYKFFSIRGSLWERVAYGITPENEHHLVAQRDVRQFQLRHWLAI
UniProt P23977, whole entry: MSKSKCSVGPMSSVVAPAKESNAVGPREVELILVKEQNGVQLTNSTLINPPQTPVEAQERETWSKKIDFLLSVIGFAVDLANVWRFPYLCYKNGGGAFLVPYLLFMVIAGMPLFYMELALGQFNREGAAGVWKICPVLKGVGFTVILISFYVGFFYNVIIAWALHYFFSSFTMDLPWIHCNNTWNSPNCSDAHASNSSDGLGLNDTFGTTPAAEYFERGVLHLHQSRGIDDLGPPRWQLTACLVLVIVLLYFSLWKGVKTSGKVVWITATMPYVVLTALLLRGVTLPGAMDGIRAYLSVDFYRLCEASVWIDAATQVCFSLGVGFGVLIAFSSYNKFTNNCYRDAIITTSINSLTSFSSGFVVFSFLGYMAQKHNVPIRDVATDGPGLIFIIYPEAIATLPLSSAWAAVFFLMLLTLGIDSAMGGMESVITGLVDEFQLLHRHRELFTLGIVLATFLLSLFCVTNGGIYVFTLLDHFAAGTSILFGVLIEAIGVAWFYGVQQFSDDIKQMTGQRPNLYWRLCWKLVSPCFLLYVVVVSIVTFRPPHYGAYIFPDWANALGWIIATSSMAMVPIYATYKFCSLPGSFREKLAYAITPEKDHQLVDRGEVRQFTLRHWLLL

Data on 5 compounds can be found in US8440724B2, “Inhibiting neurotransmitter reuptake” (Mayo Foundation for Medical Education and Research, priority 2008, dated 2013).

Molecules are shown by their SMILES.

Assay [1] concerns the target rat norepinephrine transport, synaptosomal preparations (Rattus norvegicus, UniProt Q63380). The settings on record: read-out: Inhibitor Constant (Ki), NE transport; cited from earlier work.
Assay [2] concerns the target rat dopamine transporter, synaptosomal preparations (Rattus norvegicus, UniProt P23977). Conditions: read-out: Inhibitor Constant (Ki), DA transport; cited from earlier work.
The next assay has as its system hSERT, hNET, hDAT. As to the kind of experiment: Human transporter binding: rank order and range of potency over the three transporters. The settings on record: from KD values.

Regarding `COc1ccc(C(CN(C)C)C2(O)CCCCC2)cc1` (stereo not drawn) [Venlafaxine], the inhibition constant Ki in assay [1] was 210 ± 20 nM; in assay [2] it was 5300 ± 600 nM. As to `CN(C)CCCN1c2ccccc2CCc2ccccc21` [Imipramine, reference compound], the Ki in assay [1] is 14 ± 1 nM. For the compound `Fc1ccc([C@@H]2CCNC[C@H]2COc2ccc3c(c2)OCO3)cc1` [Paroxetine, reference compound], the “Potency (rank-order of potency of binding; S = hSERT, N = hNET, D = hDAT)” value with hSERT, hNET, hDAT is given as “S > N > D”. With `CN1Cc2c(N)cccc2C(c2ccccc2)C1` (stereo not drawn) [Nomifensine, reference compound], the Ki in assay [1] is 5 ± 0.4 nM. On to `CN[C@H]1CC[C@@H](c2ccc(Cl)c(Cl)c2)c2ccccc21` [Sertraline, reference compound], for which the “Potency (rank-order of potency of binding; S = hSERT, N = hNET, D = hDAT)” value in the assay with hSERT, hNET, hDAT is on record as “S > D > N”.
